Values of other authors, collected in patent US20220331342A1, “TREATMENT OF TRAUMATIC ENCEPHALOPATHY BY FIBROBLASTS AND THERAPEUTIC ADJUVANTS” (FIGENE, LLC, priority 2019, published 2022).

Key:
ALS patients = details: two controlled clinical trials
SOD1 mutant mice = details: single therapy

## Nc1nc2ccc(OC(F)(F)F)cc2s1 [Riluzole, riluzole]
ALS patients
  increase of survival of ALS patients: 3-6 months
SOD1 mutant mice
  increase of survival: 13 to 15 days
